GIV Gai3 FP – inhibitors of GIV peptide binding to Galpha-i3, primary screen, biochemical, fluorescence polarization, FITC-GIV GBA peptide, rat Galphai3; Guanine nucleotide-binding protein G(i) subunit alpha-3 (Rattus norvegicus), P08753; 0.42% of 210,000 active; percent of control (FP), % (concentration not given with the values); 90 min; stronger effect = lower value; scaled: aluminum fluoride 0%, vehicle 100%;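 active = replicate mean at 85% of control or lower, very high polarization wells dropped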;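 note: wells of about 15 µL received 100 nL stock; the first replicate is given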
HCMV UL50-53 inh – inhibitors of HCMV UL50-UL53 interaction, biochemical, HTRF; normalized percent inhibition; inhibition, % (test concentration not listed); hit rate 0.15% among 190,000; in the data active = inhibition above about 27%, passing the limit was not always enough
GIV Gai FP conf – inhibitors of GIV peptide binding to Galpha-i3, confirmation, biochemical, fluorescence polarization, FITC-GIV peptide, rat Galphai3. shares compounds with GIV Gai3 FP. AID 1259350, 2017. hit rate 38% among 580. fluorescence polarization, mP at 100 µM. stronger effect = lower value;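 active = inhibition score of 15 or more, meaning 100 minus mean polarization as percent of control over three replicates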
GIV Gai AS conf – inhibitors of GIV binding to Galpha-i3, confirmation, orthogonal assay for GIV-Galpha-i inhibitor project, biochemical, AlphaScreen, His-GIV, GST-Galphai3 | AID 1259351, 2017 | AlphaScreen counts at 100 µM | hit rate 39% among 580 | shares compounds with GIV Gai3 FP | purified proteins, 90 min; stronger effect = lower value;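 active = inhibition score at or above a set limit, where the score is 100 minus the three-replicate mean percent of control signal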
The depositor's hits bear a star. An excerpt weighted towards active compounds, which were near 0.43% of everything screened.

Chains of the proteins cited; added tags and fusions are not shown.
Guanine nucleotide-binding protein G(i) subunit alpha-3 (Rattus norvegicus), P08753, UniProt P08753, whole entry, looked up: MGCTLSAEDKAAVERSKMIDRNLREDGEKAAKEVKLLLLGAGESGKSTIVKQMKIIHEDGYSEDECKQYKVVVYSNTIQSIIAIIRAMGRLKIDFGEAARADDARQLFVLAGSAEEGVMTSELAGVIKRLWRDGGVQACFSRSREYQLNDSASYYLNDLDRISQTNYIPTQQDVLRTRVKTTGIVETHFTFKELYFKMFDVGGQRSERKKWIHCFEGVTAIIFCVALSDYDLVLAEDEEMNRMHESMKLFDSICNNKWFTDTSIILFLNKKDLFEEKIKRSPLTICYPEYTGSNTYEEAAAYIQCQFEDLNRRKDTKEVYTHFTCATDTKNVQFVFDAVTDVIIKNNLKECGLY

Preview, 3 compounds:
Results for Cc1cc(C)c2oc(-c3cccc(NC(=O)c4ccc(Br)o4)c3)nc2c1 ?
GIV Gai3 FP: 90; HCMV UL50-53 inh: -17; GIV Gai FP conf: 76; GIV Gai AS conf: 24189

Results for O=C(Nc1ccc(-c2nc3ccccc3o2)cc1)c1ccc(Br)o1 ?
GIV Gai3 FP: 108; HCMV UL50-53 inh: -23

What do the screens show for `COC(=O)c1sc2ncn3c(SCC(=O)Nc4ccc(OC)cc4)nnc3c2c1C`?
GIV Gai3 FP: 115; HCMV UL50-53 inh: -57

The listing, from the start:
Results for Cc1cc(C)c2oc(-c3cccc(NC(=O)c4ccc(Br)o4)c3)nc2c1 ?
GIV Gai3 FP: 90; HCMV UL50-53 inh: -17; GIV Gai FP conf: 76; GIV Gai AS conf: 24189

Results for O=C(Nc1ccc(-c2nc3ccccc3o2)cc1)c1ccc(Br)o1 ?
GIV Gai3 FP: 108; HCMV UL50-53 inh: -23

What do the screens show for `COC(=O)c1sc2ncn3c(SCC(=O)Nc4ccc(OC)cc4)nnc3c2c1C`?
GIV Gai3 FP: 115; HCMV UL50-53 inh: -57

Results for COc1ccc(CCNC(=O)CSC2=NS(=O)(=O)c3ccccc32)cc1OC ?
GIV Gai3 FP: 97; HCMV UL50-53 inh: -16

How did O=C(CSC1=NS(=O)(=O)c2ccccc21)Nc1ccccc1 do in these assays?
GIV Gai3 FP: 66*; HCMV UL50-53 inh: -17; GIV Gai FP conf: 59; GIV Gai AS conf: 10980*

Results for COC(=O)c1nc2ccccc2nc1NCc1cccs1 ?
GIV Gai3 FP: 128; HCMV UL50-53 inh: -12

Results for O=C1CCSc2c1cccc2C(=O)NC1CCCCC1 ?
GIV Gai3 FP: 109; HCMV UL50-53 inh: -4

How did COc1ccc(NC(=O)c2c[nH]n3c(=O)cc(C4CCNCC4)nc23)cc1Cl do in these assays?
GIV Gai3 FP: 99; HCMV UL50-53 inh: 2

Results for O=C(NCCCO)Nc1ccc2nc(-c3ccco3)c(-c3ccco3)nc2c1 ?
GIV Gai3 FP: 81*; HCMV UL50-53 inh: 1; GIV Gai FP conf: 58*; GIV Gai AS conf: 1698*

What do the screens show for `O=C(Nc1ccc(N2CCOCC2)cc1)Nc1ccc2nc(-c3ccco3)c(-c3ccco3)nc2c1`?
GIV Gai3 FP: 97; HCMV UL50-53 inh: -38

Results for Nc1c(C(=O)Nc2ccccn2)sc2nc(-c3cccs3)cc(C(F)(F)F)c12 ?
GIV Gai3 FP: 43*; GIV Gai FP conf: 54; GIV Gai AS conf: 56627

What do the screens show for `Cc1cccc(NC(=O)c2sc3nc(-c4cccs4)cc(C(F)(F)F)c3c2N)n1`?
GIV Gai3 FP: 114

What do the screens show for `CCCCCCCCCCCCCCCCC(=O)NCCO`?
HCMV UL50-53 inh: -12

Results for CCOC(=O)C1=CN(Cc2ccc(F)cc2)C=C(C(=O)OCC)C1c1ccc(Cl)c([N+](=O)[O-])c1 ?
GIV Gai3 FP: 99

What do the screens show for `CCOC(=O)c1nc2ccccc2nc1NCc1ccc2c(c1)OCO2`?
GIV Gai3 FP: 93; HCMV UL50-53 inh: -13; GIV Gai FP conf: 68; GIV Gai AS conf: 39953

What do the screens show for `CCOC(=O)CSc1nc(NCc2ccc3c(c2)OCO3)c2ccccc2n1`?
GIV Gai3 FP: 112

What do the screens show for `CNC(=O)c1cc2cc3ccc(Cl)cc3nc2o1`?
GIV Gai3 FP: 121

What do the screens show for `CC1CC(C)(C)NC(=S)N1CC(=O)N1CCN(c2ccc(F)cc2)CC1` (stereo not drawn)?
GIV Gai3 FP: 99; HCMV UL50-53 inh: -27

What do the screens show for `CCOc1cccc2c1OC(c1cc(OC)c(OC)c(OC)c1)N1N=C(c3cccs3)CC21` (stereo not drawn)?
GIV Gai3 FP: 104

Results for COc1cccc(C2=N/C(=C\c3ccccc3OC)C(=O)N2c2ccc(C)cc2C)c1 ?
GIV Gai3 FP: 73*; GIV Gai FP conf: 68; GIV Gai AS conf: 40847

By substructure: those above with a CF3 group (two)
Results for Nc1c(C(=O)Nc2ccccn2)sc2nc(-c3cccs3)cc(C(F)(F)F)c12 ?
GIV Gai3 FP: 43*; GIV Gai FP conf: 54; GIV Gai AS conf: 56627

What do the screens show for `Cc1cccc(NC(=O)c2sc3nc(-c4cccs4)cc(C(F)(F)F)c3c2N)n1`?
GIV Gai3 FP: 114

The listing continues.
How did COc1cccc(C2=N/C(=C\c3ccccc3OC)C(=O)N2c2ccc(C)cc2Br)c1 do in these assays?
GIV Gai3 FP: 114

What do the screens show for `CCOc1ccc(S(=O)(=O)N(C)c2ccc(OCC(=O)N(C)C3CCN(C)CC3)cc2)cc1`?
HCMV UL50-53 inh: -8

What do the screens show for `CN1CCN(C2=NC(C(=O)Nc3ccccc3)CC(=O)N2)CC1` (stereo not drawn)?
GIV Gai3 FP: 109; HCMV UL50-53 inh: 10

What do the screens show for `O=C1CC(C(=O)Nc2ccccc2)N=C(N2CCc3ccccc3C2)N1` (stereo not drawn)?
GIV Gai3 FP: 81*; HCMV UL50-53 inh: 1; GIV Gai FP conf: 75; GIV Gai AS conf: 33162

Results for C=CCN1C(=O)c2ccc(C(=O)O)cc2C1=O ?
HCMV UL50-53 inh: -62

How did OCC1O[C@H]([S-])[C@@H](O)C(O)[C@@H]1O.[Au+] (stereo partly drawn) do in these assays?
GIV Gai3 FP: 65*; HCMV UL50-53 inh: -111; GIV Gai FP conf: 57*; GIV Gai AS conf: 6583*

How did OCC1O[C@H](O)C(Cl)C(O)C1O (stereo partly drawn) do in these assays?
GIV Gai3 FP: 105; HCMV UL50-53 inh: -23

Results for CNC(=O)c1cc2ccccc2oc1=O ?
HCMV UL50-53 inh: -25

Results for CCn1nnc2cc(-c3noc(-c4cnccn4)n3)ccc21 ?
GIV Gai3 FP: 98

Results for Cc1nc2cc(-c3noc(-c4cnccn4)n3)ccc2n(C(C)C)c1=O ?
GIV Gai3 FP: 106; HCMV UL50-53 inh: -40; GIV Gai FP conf: 91; GIV Gai AS conf: 35710

Results for CCOC(=O)C1=C(C)N=c2s/c(=C/c3ccc(N4CCOCC4)o3)c(=O)n2C1c1ccc2c(c1)OCO2 (stereo not drawn) ?
GIV Gai3 FP: 142

How did CCOc1ccc(C2=NN3C(C2)c2cccc(OCC)c2OC3c2ccccc2Cl)cc1 (stereo not drawn) do in these assays?
GIV Gai3 FP: 104

What do the screens show for `O=c1c(=Nc2ccccc2O)c(=O)c2ccccc12`?
HCMV UL50-53 inh: 37

Results for O=c1c(=N\O)/c(=N/O)c(=O)c2ccccc12 ?
GIV Gai3 FP: 59*; HCMV UL50-53 inh: 97*; GIV Gai FP conf: 64*; GIV Gai AS conf: 4729*

How did Cn1c(=O)c2nc3ccc(NC(=O)C(F)(F)F)cc3nc2n(C)c1=O do in these assays?
GIV Gai3 FP: 79*; HCMV UL50-53 inh: -74; GIV Gai FP conf: 67; GIV Gai AS conf: 29111

Results for Cc1cc2nc3c(=O)n(C)c(=O)n(C)c3nc2cc1N ?
GIV Gai3 FP: 95

What do the screens show for `COc1cc([N+](=O)[O-])ccc1-c1ccc(/C=C2/SC(=S)N(C)C2=O)o1`?
GIV Gai3 FP: 100

How did COc1cc2c(cc1OC)CN(CC(N)=O)CC2 do in these assays?
HCMV UL50-53 inh: -7

How did COc1cc2c(cc1OC)CN(CCC(=O)O)CC2 do in these assays?
GIV Gai3 FP: 92; GIV Gai FP conf: 67; GIV Gai AS conf: 39813

Results for COc1ccc(NC(=O)CSc2nn3c(=O)c(Cc4ccccc4)nnc3s2)cc1 ?
GIV Gai3 FP: 102; HCMV UL50-53 inh: 3

What do the screens show for `C=CCN(CC=C)Cc1ccc(C(=O)OC)o1`?
GIV Gai3 FP: 80*; HCMV UL50-53 inh: 5; GIV Gai FP conf: 75; GIV Gai AS conf: 54407

Results for COC(=O)c1ccc(CC#N)o1 ?
GIV Gai3 FP: 98; HCMV UL50-53 inh: -9

What do the screens show for `Cc1noc(C)c1C1CCCN1C(=O)c1ccc(F)cc1` (stereo not drawn)?
GIV Gai3 FP: 96

Results for CN(C)c1ccc(-c2nnc3sc(-c4cccnc4)nn23)cc1 ?
GIV Gai3 FP: 83*; HCMV UL50-53 inh: -16; GIV Gai FP conf: 63; GIV Gai AS conf: 30008
